The values that follow come from US20050287522A1.

The target in the assay is ω fragment of β-galactosidase (deletion mutant missing amino acids 11-41) (Escherichia coli (strain K12)) [β-galactosidase: P00722]. The assay can be described thus: cell-based or functional assay.

“β-galactosidase amino acids 5-49 fused to the N-terminus of GFP (from UniProt P00722 5-49; P42212 1-238)” displayed a β-galactosidase activity (complementation in C2C12 cells) (fold less activity) of 100.
